# What was measured:
# RAW 264.7 cells = assay: HDA-GSH production in RAW 264.7 cells treated with 2-ClHDA; conditions: 10-50 μM 2-ClHDA, 8 hours, vs EtOH controls
# [1] = system: primary human neutrophils; assay: α-ClFALD and FALD-GSH in PMA-activated primary human neutrophils, with or without aminotriazole
# [2] = system: Eosinophils isolated from allergen-hypersensitive individuals; assay: FALD-GSH accumulation in PMA-stimulated eosinophils; conditions: 200 nM PMA, 100 micromolar NaBr, 1 h
# [3] = 200 nM PMA treated neutrophils at 30 min, aminotriazole
molecule,measurement,setting,value
CCCCCCCCCCCCCCC(Cl)C=O (stereo not drawn),HDA-GSH levels,RAW 264.7 cells,elevated in a concentration dependent manor
aminotriazole,2-ClHDA and 2-ClODA levels,[1]; [3],greatly reduced
same,HDA-GSH and ODA-GSH levels,[1]; [3],significantly reduced
same,α-ClFAlD production,"[1]; primary human neutrophils, addition of aminotriazole",abolished
phorbol-12-myristate 13-acetate,HDA-GSH and ODA-GSH production,[2],eosinophil peroxidase-dependent production of HDA-GSH and ODA-GSH
same,time course of α-ClFAlD (2-ClHDA and 2-ClODA) production,[1]; 200 nM PMA stimulated neutrophils,"elevated by 5 min, peak by 30 min and begin to decline by 60 min"

# Reference: US10983137B2, “Diagnosis of leukocyte-mediated disease and halogen gas exposure” (dated 2021)
